## scFv variants of Ab-14 (light chain) against a SARS-CoV-2 spike peptide

From the AlphaSeq antibody data of Engelhart et al. 2022 (doi:10.1038/s41597-022-01779-4), copy in the FLAb collection.

Target: peptide PDVDLGDISGINAS, taken from heptad repeat 2 (HR2) of SARS-CoV-2 spike.

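Variants in AAYL50 differ from the parent at up to three CDR positions; double and triple changes were sampled at random. The assay is AlphaSeq: two haploid yeast populations carry antibody and antigen on their surface. The frequency of each diploid, read from paired DNA barcodes, reflects how well the two displayed proteins bind. The ratio of observed to expected reads was calibrated, replicate by replicate, on BCL2-family standards whose Kd was known from biolayer interferometry. There are three technical replicates.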

The variants keep the heavy chain, the linker and the frameworks of Ab-14 (scFv order VH, a (GGGGS)3 linker, VL).
VH: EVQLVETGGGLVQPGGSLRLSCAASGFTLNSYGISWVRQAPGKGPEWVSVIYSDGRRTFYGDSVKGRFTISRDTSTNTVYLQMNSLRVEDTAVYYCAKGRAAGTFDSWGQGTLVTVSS
VL: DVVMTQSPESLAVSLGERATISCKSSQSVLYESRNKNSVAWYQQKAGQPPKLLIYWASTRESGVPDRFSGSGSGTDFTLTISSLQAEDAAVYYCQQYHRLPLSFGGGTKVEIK

The parent's light chain CDRs are KSSQSVLYESRNKNSVA, WASTRES, QQYHRLPLS; each variant's own CDRs replace them letter for letter. This list gathers variants with a substitution at A40 (VL, numbered from residue 1). Kd is apparent (estimated from mating counts) and averaged on the log scale over replicates with a signal. Smaller is tighter. Where no diploid with the target was found in any replicate, the entry reads "not detected": below detection, most likely a poor binder, though not proof of it. In this assay the parent's reference entry averaged 4.4 nM; its copy inside this library read 48 nM. Empty control strains, which show no peptide, gave a signal in 18% of pairings with library AAYL50; the median was 15 µM and 95% of these signals were weaker than 970 nM. No background was subtracted.

CDR-L1	CDR-L2	CDR-L3	Kd (apparent)	seen in
KSSQSVLPESRNKNSVL	WASTRES	QQYYRLPLS	not detected	0/3
KSSQSVLYESRNKNSVW	HAQTRES	QQYHRLPLS	110 µM	2/3
KSSQSVLYESRNKNSVM	WASTHES	QQYHRLPLS	2.0 mM	1/3
KSSQSVLYESRNKNSVW	WASTRES	QQYVRLPLS	not detected	0/3
KSSQSVRYESRNKNSVY	WASTRES	IQYHRLPLS	4.2 µM	1/3
KSSQSVLYFSRNKNSVI	WASTRES	QQYHRLPLS	not detected	0/3
KSSQSVLYESRNKNSVT	WASTRYS	QQYHRLPLF	11 µM	1/3
KSSQSVLYESRNKNSNP	WVSTRES	QQYHRLPLS	not detected	0/3
GSSQSVLYESRSKNSVG	WASTRES	QQYHRLPLS	not detected	0/3
KSSQSVLYESRNKNSVS	WASTRES	QPYQRLPLS	not detected	0/3
KSSQSVLYESRYKNSVY	WASTRES	QQSHRLPLS	not detected	0/3
KSMQSVLYESRNKNSVC	WASWRES	QQYHRLPLS	not detected	0/3
KSSQSNLYESRNKNSVM	WASTRES	QLYHRLPLS	not detected	0/3
KSSQSVLYESRNKNSVE	IASTREA	QQYHRLPLS	1.9 mM	1/3
KSSQSVLYESQNKDSVY	WASTRES	QQYHRLPLS	not detected	0/3
KSSQSVLYESRLKNSVL	WASTRES	QQYHRLLLS	not detected	0/3
KSSQSVLKESRNKNSVP	TASTRES	QQYHRLPLS	not detected	0/3
KSSQSVLYESRNKNSVY	WALTTES	QQYHRLPLS	not detected	0/3
KSSQSCLYESRNKNSVI	WASTSES	QQYHRLPLS	not detected	0/3
KSEQSVLYESRNKNSVI	WASTRES	QQYDRLPLS	not detected	0/3
KSSQSVLYESRNKNSVF	WASTCES	QQYHRLMLS	not detected	0/3
KSSQLVLYESRNKASVC	WASTRES	QQYHRLPLS	not detected	0/3
KSSQSVLYESRNKNSVE	WASTYES	QQYHRLPLS	28 µM	2/3
KYSQSVLYESRNKNSVY	WASTRES	QQSHRLPLS	25 µM	1/3
KSIQSVLYESRNKNSVP	WASTRES	QQEHRLPLS	not detected	0/3
KSSQSYLYCSRNKNSVY	WASTRES	QQYHRLPLS	46 µM	2/3
KSSQSVLVESRRKNSVK	WASTRES	QQYHRLPLS	not detected	0/3
KSSQSVRYESRNKNSVD	WASTRES	CQYHRLPLS	16 µM	2/3
KSSQKVLYELRNKNSVW	WASTRES	QQYHRLPLS	10 µM	1/3
KSSQSVLYESRNENSVH	WASTRES	QQYHRTPLS	19 µM	2/3
KSSQTVVYESRNKNSVS	WASTRES	QQYHRLPLS	40 µM	1/3
KSSQSVLYESRNKNSVC	EESTRES	QQYHRLPLS	9.5 nM	3/3
KSSQSVLYESRNKNSVP	WASTRES	QQYHRLVNS	not detected	0/3
KSSQSVLYESRKKNSVD	WASTRES	QQYHRLPLS	10 µM	1/3
KSSQSPLYESRFKNSVV	WASTRES	QQYHRLPLS	4.3 µM	1/3
KVSQSVLYESRNKNSVW	WMSTRES	QQYHRLPLS	not detected	0/3
KSSSSVLYESRNKNLVI	WASTRES	QQYHRLPLS	not detected	0/3
KSSQSVLYESRNKNSVV	WASLRES	QQDHRLPLS	not detected	0/3
KSSQSVLAESRNKNSVG	WASTRES	QQYHRLPLS	76 µM	1/3
KSSQSALYESRNKNSVN	WASTRPS	QQYHRLPLS	not detected	0/3
KSSQSVLYESRNKNSVN	WASTRHS	QQYHRLPTS	52 µM	1/3
KSSQSVLYESRNKNSVK	WASTRSS	QQYHRLPLW	2.5 µM	1/3
KSSDSVLYESRVKNSVK	WASTRES	QQYHRLPLS	11 µM	2/3
KSSQSVLYESRNKNSVR	WASTRES	QQYARLPAS	not detected	0/3
KSSQSVLYESRNKNKVK	WASTRAS	QQYHRLPLS	not detected	0/3
KSSQSVLYESRNKNSVC	WAMTRES	QQYHRCPLS	26 µM	2/3
KSSQSVLYESRNMRSVT	WASTRES	QQYHRLPLS	not detected	0/3
KNSQSVLYESRNKNSVH	WASTRCS	QQYHRLPLS	65 µM	2/3
KSSQSVLVESRNKNSVV	WASTRES	QQYHRLLLS	not detected	0/3
KSSQSVLYESRNKNSVQ	HASTRES	QQYHRLGLS	32 µM	2/3
KSSQSVLYEPHNKNSVG	WASTRES	QQYHRLPLS	not detected	0/3
KSSQSVLYESTNKNEVQ	WASTRES	QQYHRLPLS	not detected	0/3
KSSESVLYESRNKNSVK	WASTRES	QQYHRLPFS	140 µM	1/3
TSSQSVLYESRNKNSVT	WASTRES	QQYHRLPLS	1.7 mM	1/3
KSSQSVLYESRNANSVF	WASTRES	QQYHRLPSS	100 µM	2/3
KSSQSVLYESRNKNRVW	WASTRES	QQQHRLPLS	not detected	0/3
KSSQSVLYESRNKNSQD	WASTRES	QQYHRLPLS	not detected	0/3
KSSQSVLYESRNKNSFY	WISTRES	QQYHRLPLS	3.4 µM	1/3
KSSQSVLYESRNKNSVG	WASTHES	QQYHRLPLS	not detected	0/3
KISQSVLYESRNKNSVQ	WASTRES	QQYHTLPLS	99 µM	2/3
KSSQSVYYESRNKNSVC	WASTRES	QQYHRLPLS	140 nM	3/3
KSSQSVLYTSRNKNSVY	WASTRES	QQYHRLPLS	not detected	0/3
KGSQSVLYESRNKNSVM	WASTRES	QQYHRLCLS	not detected	0/3
ESSQSVLYESRNKGSVE	WASTRES	QQYHRLPLS	390 µM	3/3
KSSQSVLYESRTKNHVT	WASTRES	QQYHRLPLS	7.4 µM	2/3
KSMCSVLYESRNKNSVN	WASTRES	QQYHRLPLS	1.1 mM	1/3
KSSQSVLYESRNKNTVY	WASLRES	QQYHRLPLS	6.6 µM	1/3
KSSQSVLYESRNKNSGK	WASTRES	QSYHRLPLS	8.4 µM	1/3
KSSQVVLYESRNKNSVG	WASTREC	QQYHRLPLS	7.6 µM	1/3
KSSQSVLYESRNKNSVD	SASTRES	HQYHRLPLS	3.5 µM	1/3

Picked from the list: the 3 lowest averages where every replicate gave a value.

| CDR-L1 | CDR-L2 | CDR-L3 | Kd (apparent) | seen in |
|---|---|---|---|---|
| KSSQSVLYESRNKNSVC | EESTRES | QQYHRLPLS | 9.5 nM | 3/3 |
| KSSQSVYYESRNKNSVC | WASTRES | QQYHRLPLS | 140 nM | 3/3 |
| ESSQSVLYESRNKGSVE | WASTRES | QQYHRLPLS | 390 µM | 3/3 |